# Measured values published in PubChem BioAssay AID588453 (National Center for Advancing Translational Sciences (NCATS), 2011).
# The chains behind the UniProt entries cited, without tags or fusion partners.
# UniProt O89049, whole entry: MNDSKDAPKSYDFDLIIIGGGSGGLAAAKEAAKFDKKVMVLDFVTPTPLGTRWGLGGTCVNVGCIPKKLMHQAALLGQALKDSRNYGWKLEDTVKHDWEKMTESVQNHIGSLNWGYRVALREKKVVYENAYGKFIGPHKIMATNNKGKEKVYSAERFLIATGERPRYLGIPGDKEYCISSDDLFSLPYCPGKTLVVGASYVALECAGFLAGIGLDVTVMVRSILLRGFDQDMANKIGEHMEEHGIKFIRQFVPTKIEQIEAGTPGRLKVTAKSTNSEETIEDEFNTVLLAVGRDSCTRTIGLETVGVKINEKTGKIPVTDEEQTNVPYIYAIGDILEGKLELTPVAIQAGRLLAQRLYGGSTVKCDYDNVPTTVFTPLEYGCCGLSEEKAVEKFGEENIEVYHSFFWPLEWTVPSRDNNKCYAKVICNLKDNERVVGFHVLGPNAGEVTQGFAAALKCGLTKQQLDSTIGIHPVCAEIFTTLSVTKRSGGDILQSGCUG
# The entries are a selection whose mix differs from that of the whole data set. Some tests of the compounds listed are not included; inactive here does not mean inactive elsewhere. Records with an inconclusive call do not appear. Activity calls are given as the source filed them. The call rests on the fitted dose curve; in most records, active means well fitted inhibition curve with a large enough effect; inconclusive means small, poorly fitted or top-dose-only effect; inactive means no such curve, though single readings can be large or run the other way.
# Target: Thioredoxin reductase 1, cytoplasmic (Rattus norvegicus) (UniProt O89049)
# Experiment: qHTS Assay for Inhibitors of Mammalian Selenoprotein Thioredoxin Reductase 1 (TrxR1): qHTS; further: nearly all actives have a fitted effect of over 65% in size
# Details: recombinant rTrxR1, NADPH fluorescence consumption, selenite substrate
# [1] = at 114 µM (top of the series) unless noted
# On the % scale 0 is the no-effect control and ±100 the full control effect.
structure (smiles),measurement,setting,value
CCOc1cccc(C(=O)NCC2(N(C)C)CCCCC2)c1,"activity change, negative = inhibition",[1],inactive: 19.6%
COc1ccc(C(=O)NCC2(N(C)C)CCCCC2)cc1,"activity change, negative = inhibition",[1],inactive: 9.34%
O=C(NCC1(N2CCCCC2)CCCCC1)c1cccc(Br)c1,"activity change, negative = inhibition",[1],inactive: 13.3%
Cc1cc(C(=O)NCC2(N3CCCCC3)CCCCC2)ccc1[N+](=O)[O-],"activity change, negative = inhibition",[1],inactive: 23.6%
CCN1CCCC(OC(=O)C2(O)c3ccccc3C=Cc3ccccc32)C1 (configuration not stated),"activity change, negative = inhibition",[1],inactive: 17.8% [at 57.1 µM]
O=C(NCC1(N2CCCCC2)CCCCC1)c1cc(F)c(F)cc1Cl,"activity change, negative = inhibition",[1],inactive: 19.3% [at 57.1 µM]
C=CCN1CCN(CCOC(=O)C(O)(c2ccccc2)c2ccccc2)CC1,"activity change, negative = inhibition",[1],inactive: -4.12% [at 57.1 µM]
CCCCOc1ccccc1C(=O)NCC1(N(C)C)CCCCC1,"activity change, negative = inhibition",[1],inactive: 10.9%
CN(C)C1CCCC1OC(=O)C(O)(c1ccccc1)c1ccccc1 (configuration not stated),"activity change, negative = inhibition",[1],inactive: -4.93%
CN(C)c1ccc(C(=O)NCC2(N(C)C)CCCCC2)cc1,"activity change, negative = inhibition",[1],inactive: -6.78% [at 57.1 µM]
CN(C)C1(CNC(=O)c2ccccc2[N+](=O)[O-])CCCCC1,"activity change, negative = inhibition",[1],inactive: -9%
Cc1ccccc1C(=O)NCC1(N2CCCCC2)CCCCC1,"activity change, negative = inhibition",[1],inactive: 10.2%
Cc1ccc(C(=O)NCC2(N3CCCCC3)CCCCC2)cc1,"activity change, negative = inhibition",[1],inactive: 13.8%
CN(C)C1(CNC(=O)c2ccccc2F)CCCCC1,"activity change, negative = inhibition",[1],inactive: 13.7%
COc1cc(SC)ccc1C(=O)NCC1(N(C)C)CCCCC1,"activity change, negative = inhibition",[1],inactive: 12.5%
CCN(CC)CC(C)C(C)OC(=O)C(O)(c1ccccc1)c1ccccc1 (configuration not stated),"activity change, negative = inhibition",[1],inactive: 2.41%
CN(C)C1(CNC(=O)c2cccc(Cl)c2)CCCCC1,"activity change, negative = inhibition",[1],inactive: 21.8%
CC(C)N1C(=O)CC2(CCN(CCOC(=O)C(O)(c3ccccc3)c3ccccc3)CC2)C1=O,"activity change, negative = inhibition",[1],inactive: 5.94% [at 57.1 µM]
CN1[C@@H]2CC[C@H]1CC(OC(=O)C(O)(c1ccccc1)c1ccccc1)C2 (some centres not stated),"activity change, negative = inhibition",[1],inactive: 6.29%
O=C(NCC1(N2CCCCC2)CCCCC1)c1cc([N+](=O)[O-])ccc1Cl,"activity change, negative = inhibition",[1],inactive: 12.9% [at 57.1 µM]
O=C(OCCN1CCCC1)C(O)(c1ccccc1)c1ccccc1,"activity change, negative = inhibition",[1],inactive: 20.1% [at 57.1 µM]
CC(C)Oc1ccc(C(=O)NCC2(N(C)C)CCCCC2)cc1,"activity change, negative = inhibition",at 57.1 µM (top of the series),inactive: 12.1%
same,"activity change, negative = inhibition",at 114 µM (top of the series),inactive: 19.8%
CN(C)c1cccc(C(=O)NCC2(N(C)C)CCCCC2)c1,"activity change, negative = inhibition",[1],inactive: -13.6%
COc1ccc(Br)c(C(=O)NCC2(N3CCCCC3)CCCCC2)c1,"activity change, negative = inhibition",[1],inactive: -13.7%
COc1cc(C(=O)NCC2(N(C)C)CCCCC2)cc(OC)c1OC,"activity change, negative = inhibition",[1],inactive: 25.2%
Cc1cccc(C(=O)NCC2(N(C)C)CCCCC2)c1,"activity change, negative = inhibition",[1],inactive: 28.7%
CC(C)COc1ccc(C(=O)NCC2(N(C)C)CCCCC2)cc1,"activity change, negative = inhibition",[1],inactive: 18.2%
COc1cccc(C(=O)NCC2(N3CCOCC3)CCCCC2)c1,"activity change, negative = inhibition",[1],inactive: -5.62%
O=C(OC1CN2CCC1CC2)C(CO)(c1ccccc1)c1ccccc1 (configuration not stated),"activity change, negative = inhibition",[1],inactive: -1.53%
O=C(NCC1(N2CCCCC2)CCCCC1)c1cccc(Cl)c1,"activity change, negative = inhibition",[1],inactive: 5.75%
COc1ccc(Cl)cc1C(=O)NCC1(N(C)C)CCCCC1,"activity change, negative = inhibition",[1],inactive: -11.6% [at 57.1 µM]
COc1cccc(C(=O)NCC2(N3CCCCC3)CCCCC2)c1,"activity change, negative = inhibition",[1],inactive: 11.5% [at 57.1 µM]
COc1ccc(C(=O)NCC2(N(C)C)CCCCC2)cc1Cl,"activity change, negative = inhibition",[1],inactive: 14.6%
COc1cc(C(=O)NCC2(N(C)C)CCCCC2)c([N+](=O)[O-])cc1OC,"activity change, negative = inhibition",[1],inactive: 8.57%
O=C(CBr)c1ccc(Cl)cc1,"activity change, negative = inhibition",[1],inactive: -11.7%
CN(C)C1(CNC(=O)c2ccc(Br)cc2)CCCCC1,"activity change, negative = inhibition",[1],inactive: 33.1%
